Target: D(2) dopamine receptor (Rattus norvegicus, UniProt P61169)
Test: In vitro binding activity against dopamine receptor D2 from homogenized rat brain, using [3H]spiperone as the radioligand.

The chains behind the UniProt entries cited, without tags or fusion partners.
UniProt P61169, whole entry: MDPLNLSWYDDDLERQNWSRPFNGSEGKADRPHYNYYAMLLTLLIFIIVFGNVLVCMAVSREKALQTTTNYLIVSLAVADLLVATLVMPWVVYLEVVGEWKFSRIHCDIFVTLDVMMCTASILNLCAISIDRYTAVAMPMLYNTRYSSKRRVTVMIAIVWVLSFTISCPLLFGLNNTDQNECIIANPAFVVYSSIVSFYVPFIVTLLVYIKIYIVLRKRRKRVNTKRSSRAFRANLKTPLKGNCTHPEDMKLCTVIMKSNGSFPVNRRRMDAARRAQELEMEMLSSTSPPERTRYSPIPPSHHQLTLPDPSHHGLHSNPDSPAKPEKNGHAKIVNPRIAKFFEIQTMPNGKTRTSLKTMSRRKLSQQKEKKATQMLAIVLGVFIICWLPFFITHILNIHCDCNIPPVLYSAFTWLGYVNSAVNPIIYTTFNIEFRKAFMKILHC

CN(C)[C@@H]1CCc2ccc3[nH]ccc3c2C1
IC50: 1.05 µM

CN(C)C1CCc2ccc3[nH]ccc3c2C1 (racemic)
IC50: 1.84 µM

CN(C)[C@H]1CCc2ccc3[nH]ccc3c2C1
IC50: 9.51 µM

Source: ChEMBL document CHEMBL1124652, “Resolved 6,7,8,9-tetrahydro-N,N-dimethyl-3H-benz[e]indol-8-amine: central dopamine and serotonin receptor stimulating properties” (J Med Chem, 1989)
